The values that follow come from ChEMBL document CHEMBL5537130, “Structure-based design of potent FABP4 inhibitors with high selectivity against FABP3” (Eur J Med Chem, 2024).

Series [1] in a line: Metabolic stability in human hepatocyte assessed as intrinsic clearance. Conditions: hepatocytes, 1 h, 1 µM, time 60 min. Type of series: ADME, cell-based.
Series [2] can be described thus: Metabolic stability in mouse hepatocyte assessed as intrinsic clearance. Format: ADME, cell-based. The note with it: hepatocytes, 1 h, 1 µM, time 60 min.
The next series concerns THP-1. Kind of series: Cytotoxicity against human THP-1 cells assessed as reduction in cell viability upto 100 uM incubated for 24 hrs by CCK-8 assay. Type of series: toxicity, cell-based. The note with it: thp-1, 24 h. For orientation: Tetrazolium dyes change colour on reduction, which living cells bring about.

With `Cc1cccc(Nc2cccc(Cl)c2-c2ccc3c(c2)CCO3)c1C(=O)O`, the results for the CLH in series [1] and in series [2] were 1228 mL/min and 0.69 mL/min, respectively.
Take `Cc1cccc(Nc2cccc(Cl)c2-c2ccccc2)c1C(=O)O`: the CLH in series [1] was found to be 591 mL/min; in series [2], 0.8 mL/min. The Activity result in the series on THP-1 was “Non-Toxic”.
